Each structure is given as a SMILES string. Values joined by “and” are separate entries in the source; they are usually repeats but may differ in a detail not shown here. Equal entries are not always repeated. The list shows a part of the results, in another mix than the full data. Records with an inconclusive call do not appear. Active and inactive are the calls of the source. Calls come from the whole dose curve; as a rule, active = well fitted inhibition curve with a large enough effect; inconclusive = small, poorly fitted or top-dose-only effect; inactive = no such curve, though single readings can be large or run the other way.

The chains behind the UniProt entries cited, without tags or fusion partners.
UniProt O95398, whole entry: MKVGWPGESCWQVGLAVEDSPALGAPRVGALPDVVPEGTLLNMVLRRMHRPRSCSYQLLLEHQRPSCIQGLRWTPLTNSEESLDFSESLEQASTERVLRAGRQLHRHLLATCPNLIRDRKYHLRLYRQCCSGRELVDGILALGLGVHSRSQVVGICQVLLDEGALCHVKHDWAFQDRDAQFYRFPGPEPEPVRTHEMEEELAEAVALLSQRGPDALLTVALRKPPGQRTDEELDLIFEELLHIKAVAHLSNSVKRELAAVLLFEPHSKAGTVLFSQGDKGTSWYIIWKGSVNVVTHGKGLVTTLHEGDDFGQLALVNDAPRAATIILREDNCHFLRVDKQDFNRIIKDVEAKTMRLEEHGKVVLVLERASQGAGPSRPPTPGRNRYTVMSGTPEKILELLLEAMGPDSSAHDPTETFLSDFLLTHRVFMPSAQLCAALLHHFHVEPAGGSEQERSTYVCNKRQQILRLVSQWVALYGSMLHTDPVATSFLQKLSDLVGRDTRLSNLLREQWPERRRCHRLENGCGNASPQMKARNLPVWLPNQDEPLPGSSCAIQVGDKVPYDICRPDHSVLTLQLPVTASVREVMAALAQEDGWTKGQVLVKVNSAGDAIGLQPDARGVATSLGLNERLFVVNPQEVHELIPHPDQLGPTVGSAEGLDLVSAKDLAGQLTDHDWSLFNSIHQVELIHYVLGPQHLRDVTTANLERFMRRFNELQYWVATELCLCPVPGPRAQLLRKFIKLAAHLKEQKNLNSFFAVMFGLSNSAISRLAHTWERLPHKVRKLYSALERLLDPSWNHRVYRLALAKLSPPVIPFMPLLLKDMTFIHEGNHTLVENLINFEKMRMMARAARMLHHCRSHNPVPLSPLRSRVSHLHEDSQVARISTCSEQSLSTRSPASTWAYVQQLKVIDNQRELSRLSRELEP

Three compounds from PubChem BioAssay AID1645882 (National Center for Advancing Translational Sciences (NCATS), 2021) can be followed below.

The target of the assay is Rap guanine nucleotide exchange factor 3 (Homo sapiens) (UniProt O95398). Briefly: Validation qHTS for antagonist of cAMP-regulated guanine nucleotide exchange factor 3 (EPAC1).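 Note: plate controls were DMSO for no effect and ATA control for full effect; nearly all actives have a fitted effect of over 75% in size.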 To be noted: EPAC1 Rap1B-BODIPY-GDP exchange, fluorescence; at 320 µM (top of the series) unless noted. An excerpt:
Assay Provider (PI): Xiaodong Cheng Ph.D.
The University of Texas Medical Branch, […], TX
In multi-cellular eukaryotic organisms, the effects of cAMP are transduced by two ubiquitously-expressed intracellular cAMP receptors, the classic protein kinase A/cAMP-dependent protein kinase (PKA/cAPK) and the more recently discovered exchange protein directly activated by cAMP/cAMP-regulated guanine nucleotide exchange factor (EPAC/cAMP-GEF). Both PKA and EPAC are ubiquitously expressed in all tissues, and an increase in intracellular cAMP levels will lead to the activation of both PKA and EPAC. Therefore, careful dissections of the individual role and relative contribution of EPAC and PKA within the overall cAMP signaling in various model systems are critical for further elucidating the mechanism of cAMP signaling. To date no EPAC-specific antagonists and agonist, as well as isoform-specific agonists have been reported, and developing EPAC-specific pharmacological probes to determine the physiological functions that EPAC play in the overall cAMP-mediated signaling remains a major challenge within the research field. […]
This qHTS will be used to screen the Molecular Libraries Small Molecule Repository (MLSMR) as a concentration-titration series using the NCGC unique quantitative screening (qHTS) platform to find activators for EPAC1. […] Activators are identified by monitoring the change in fluorescence signal as the exchanged free BODIPY-GDP has a reduced fluorescence compared to Rap1-bound BODIPY-GDP. […]
Briefly, three uL of reagents (100 nM EPAC1, 250 nM RAP1B-BODIPY-GDP, 50 uM GDP) were dispensed into a 1536-well Greiner black solid-bottom medium binding assay plate. […] The assay plates were read at 5 minute intervals for 30 minutes in the ViewLux plate reader using 480nm excitation and 540nm emission filters. […]
Consider `CCC(=O)N(c1ccccc1)C1(COC)CCN(CCc2cccs2)CC1`, for which the activity change, negative = inhibition was inactive: 8.79%.

Regarding `CCC(=O)N(c1ccccc1)C1(COC)CCN(CCn2nnn(CC)c2=O)CC1`, the activity change, negative = inhibition is inactive: 31.8%.

With `CN(CCCl)CCCl`, the activity change, negative = inhibition is inactive: 6.63% [at 150 µM] and inactive: 16.4% [at 150 µM].
